Test system: HCV replicon (1b) in Clone A cells (derived from Huh-7)
Test: HCV replicon ELISA (NS5a) in Clone A cells
Assay type: cell-based, Hepatitis C virus
Details: 3 days incubation, reference compound
Procedure: The ability of the compounds of the present invention to inhibit Hepatitis C virus replicon constitutively expressed in a human liver cell line was established by the following experimental procedure:
Clone A cells (licensed from Apath, LLC) are derived from Huh-7 cells (human hepatoma cell line) and constitutively express of the HCV replication proteins with concomitant amplification the HCV replicon (1b) genome. Cells are maintained and passaged in DMEM/10% FCS/1 mg/ml G418 (Geneticin from Gibco #11811-023; other media components as described below in “elisa media”). Care should be taken to maintain cell monolayers at a subconfluent state by 1:3 or 1:4 passages every 3-4 days. The replicon is extremely sensitive to the cellular metabolism/proliferation state and replicon copy number will rapidly decline in confluent monolayers (resting cells). Under ideal conditions each cell has, on average, 1000 copies of the HCV replicon genome. […]
10 μl of compounds (in DMSO) are added to column 3 of the mother plate. […] Mother plates are set aside until ready for serial dilution to be performed. […]

“Interferon-a2: reference compound of the HCV replicon ELISA assay” was tested, and the IC50 was 4-30 U/ml.

— US7250441B2, “Carbazole and cyclopentaindole derivatives to treat infection with Hepatitis C virus” (priority 2004, dated 2007)
